Assay results reported in PubChem BioAssay AID493222 (Johns Hopkins Ion Channel Center, 2011).
The list shows a part of the results, in another mix than the full data. Some tests of the compounds listed are not included; inactive here does not mean inactive elsewhere. Calls of active or inactive are those of the source.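 Rule for the calls: active = mean of duplicate membrane potential ratios lying over 3 SD above or below the buffer control mean, so actives fall on both sides; inactive = the rest.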

Assay: membrane potential effects in parental HEK293, counter-screen for CHT inhibitor project, cell-based, membrane potential dye (AID 493222);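 note: parental cells lack the transporter so any hit is non-specific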
Conditions: choline response, at 10 µM

| SMILES | outcome |
| --- | --- |
| CCCCC(CC)C(=O)N1CCN(C/C=C/c2ccccc2)CC1 (stereo unspecified) | inactive |
